Test [1] concerns the target T1, P2X7 (Homo sapiens (Human), UniProt Q99572). Description: Ca2+ flux (FLIPR) in 1321N1 cells expressing recombinant human P2X7 channel. Type of test: cell-based. Particulars: 250 μM BzATP. The procedure:
(§1) (A) Ca^2+ Flux: 1321N1 cells expressing the recombinant human, rat or mouse P2X7 channel was cultured in HyQ DME/(HyClone/Dulbecco's Modified Eagle Medium) high glucose supplemented with 10% Fetal Bovine Serum (FBS) and appropriate selection marker. Cells were seeded at a density of 25000 cells/well (96-well clear bottom black walled plates) in 100 μl volume/well. On the day of the experiment, cell plates were washed with assay buffer, containing (in mM): 130 NaCl, 2 KCl, 1 CaCl2, 1 MgCl2, 10 HEPES, 5 glucose; pH 7.40 and 300 mOs. After the wash, cells were loaded with the Calcium-4 dye (Molecular Device) and incubated in the dark for 60 minutes. Test compounds were prepared at 250× the test concentration in neat DMSO. Intermediate 96-well compound plates were prepared by transferring 1.2 μL of the compound into 300 μL of assay buffer. A further 3× dilution occurred when transferring 50 μL/well of the compound plate to 100 μL/well in the cell plate. Cells were incubated with test compounds and dye for 30 minutes. […] The fluorescence change was measured 180 seconds after adding the agonist.

Chains of the proteins cited; added tags and fusions are not shown. Lines headed by an entry give the natural chain unless they say otherwise; changes in a name come on top.
UniProt Q99572: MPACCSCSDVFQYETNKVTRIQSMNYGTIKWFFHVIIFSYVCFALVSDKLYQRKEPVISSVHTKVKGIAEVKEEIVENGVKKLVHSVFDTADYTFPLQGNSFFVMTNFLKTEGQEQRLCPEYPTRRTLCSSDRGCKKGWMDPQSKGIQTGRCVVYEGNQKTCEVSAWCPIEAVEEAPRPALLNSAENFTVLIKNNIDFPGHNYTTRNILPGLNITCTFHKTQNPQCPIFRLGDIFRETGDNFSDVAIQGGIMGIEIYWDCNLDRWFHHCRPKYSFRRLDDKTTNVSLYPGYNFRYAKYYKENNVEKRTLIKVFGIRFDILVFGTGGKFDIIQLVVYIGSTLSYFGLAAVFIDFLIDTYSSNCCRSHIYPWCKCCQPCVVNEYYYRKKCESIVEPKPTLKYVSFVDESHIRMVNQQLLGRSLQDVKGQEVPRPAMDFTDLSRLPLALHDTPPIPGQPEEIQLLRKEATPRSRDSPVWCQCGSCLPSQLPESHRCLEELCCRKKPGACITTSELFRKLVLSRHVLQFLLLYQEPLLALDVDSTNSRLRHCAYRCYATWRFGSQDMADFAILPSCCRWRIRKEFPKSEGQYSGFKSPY
UniProt Q64663: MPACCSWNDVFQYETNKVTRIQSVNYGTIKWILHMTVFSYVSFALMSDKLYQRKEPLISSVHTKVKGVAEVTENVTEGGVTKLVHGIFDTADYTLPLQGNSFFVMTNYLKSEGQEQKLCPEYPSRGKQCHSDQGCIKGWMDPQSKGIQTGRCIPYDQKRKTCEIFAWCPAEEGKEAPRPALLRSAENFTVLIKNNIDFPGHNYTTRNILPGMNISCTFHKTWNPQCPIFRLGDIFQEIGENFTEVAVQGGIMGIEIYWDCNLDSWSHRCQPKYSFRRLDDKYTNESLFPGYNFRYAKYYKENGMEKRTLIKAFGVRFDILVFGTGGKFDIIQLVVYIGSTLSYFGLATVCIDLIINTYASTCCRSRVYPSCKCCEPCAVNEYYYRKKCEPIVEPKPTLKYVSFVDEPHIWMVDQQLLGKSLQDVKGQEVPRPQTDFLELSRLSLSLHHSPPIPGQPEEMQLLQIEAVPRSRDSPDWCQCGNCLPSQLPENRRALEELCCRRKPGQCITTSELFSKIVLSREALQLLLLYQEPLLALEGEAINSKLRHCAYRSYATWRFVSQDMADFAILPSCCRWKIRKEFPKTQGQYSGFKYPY

Test [2] concerns the target T1, P2X7. Description: Radioligand binding, human P2X7-1321N1 cell membranes, tritiated A-804598 tracer. Particulars: 1 hour at 4° C. The procedure: (B) Radioligand binding: human or rat P2X7-1321N1 cells were collected and frozen @ −80° C. On the day of the experiment, cell membrane preparations were made according to standard published methods. […] The compound can be prepared as described in the literature. […] The assay was terminated by filtration (GF/B filters pre-soaked with 0.3% PEI) and washed with washing buffer (Tris-HCl 50 mM). The IC50 generated in the binding assay was corrected for tracer concentration and affinity of the tracer to derive at the affinity (Ki) of the test compounds.

Test [3] deals with T2, rat P2X7 (Rattus norvegicus (Rat), UniProt Q64663). Description: Radioligand binding, rat P2X7-1321N1 cell membranes, tritiated A-804598 tracer. The conditions noted are these: 1 hour at 4° C. The procedure:
(B) Radioligand binding: human or rat P2X7-1321N1 cells were collected and frozen @ −80° C. On the day of the experiment, cell membrane preparations were made according to standard published methods. The total assay volume was 100 μl:10 μl compound (10×)+(b) 40 μl tracer (2.5×)+50 μl membrane (2×). The tracer used for the assay was tritiated A-804598. The compound can be prepared as described in the literature. (Donnelly-Roberts, D. Neuropharmacology 2009, 56 (1), 223-229.) Compounds, tracer and membranes were incubated for 1 hour @ 4° C. The assay was terminated by filtration (GF/B filters pre-soaked with 0.3% PEI) and washed with washing buffer (Tris-HCl 50 mM). The IC50 generated in the binding assay was corrected for tracer concentration and affinity of the tracer to derive at the affinity (Ki) of the test compounds.

For test [4], the target named is T2, rat P2X7. The experiment in a line: Ca2+ flux (FLIPR) in 1321N1 cells expressing recombinant rat P2X7 channel. The conditions noted are these: 250 μM BzATP. The test is classed as cell-based. The procedure:
as §1
(A change in cytosolic calcium serves as a functional read-out for many receptors and channels.)

Consider 20 molecules from patent US9040534B2 (Janssen Pharmaceutica NV, priority 2013, dated 2015).

pIC50, pKi: −log10 of the molar value.

In general, pIC50 refers to −log10 of the IC50, conventionally taken in molar units. As a reminder, the pKi is the Ki on a negative log10 scale, so that one unit is a factor of ten. A high value points to a low Ki. Take `C[C@H]1Cn2c(nnc2-c2ccc(F)cc2)C(=O)N1Cc1cccc(C(F)(F)F)c1Cl` [Example 17, (6S)-7-[2-Chloro-3-(trifluoromethyl)benzyl]-3-(4-fluorophenyl)-6-methyl-6,7-dihydro[1,2,4]triazolo[4,3-a]pyrazin-8(5H)-one]: the pIC50 at P2X7 [1] was more than 9.00. In addition, the pKi at P2X7 [2] was 8.10.

Regarding `C[C@H]1Cn2c(nnc2-c2ncc(F)cn2)C(=O)N1Cc1cccc(C(F)(F)F)c1Cl` [Example 34, (6S)-7-[2-Chloro-3-(trifluoromethyl)benzyl]-3-(5-fluoropyrimidin-2-yl)-6-methyl-6,7-dihydro[1,2,4]triazolo[4,3-a]pyrazin-8(5H)-one], the pKi on rat P2X7 [3] is 8.55. Moreover, the pIC50 at rat P2X7 [4] is 6.76.

For the molecule `C[C@H]1Cn2c(nnc2-c2ccc(F)cn2)C(=O)N1Cc1cccc(C(F)(F)F)c1Cl` [Example 30, (6S)-7-[2-Chloro-3-(trifluoromethyl)benzyl]-3-(5-fluoropyridin-2-yl)-6-methyl-6,7-dihydro[1,2,4]triazolo[4,3-a]pyrazin-8(5H)-one], the negative-log Ki (pKi) on rat P2X7 [3] was 8.30. The pIC50 on rat P2X7 [4] is 6.73.

In the case of `CC1Cn2c(nnc2-c2cnccn2)C(=O)N1Cc1cccc(C(F)(F)F)c1Cl` (racemic) [Example 14, (±)-7-[2-Chloro-3-(trifluoromethyl)benzyl]-6-methyl-3-pyrazin-2-yl-6,7-dihydro[1,2,4]triazolo[4,3-a]pyrazin-8(5H)-one], the pIC50 at rat P2X7 [4] is 7.31; at P2X7 [1] it was 8.68. The pKi at P2X7 [2] is 8.40.

`C[C@H]1Cn2c(nnc2-c2cc[nH]n2)C(=O)N1Cc1cccc(C(F)(F)F)c1Cl` [Example 28, (6S)-7-[2-Chloro-3-(trifluoromethyl)benzyl]-6-methyl-3-(1H-pyrazol-3-yl)-6,7-dihydro[1,2,4]triazolo[4,3-a]pyrazin-8(5H)-one] showed a pKi on rat P2X7 [3] of 8.70. Further, the pIC50 is 8.16 at rat P2X7 [4] and 9.00 at P2X7 [1].

Consider `C[C@@H]1Cn2c(nnc2-c2cnccn2)C(=O)N1Cc1cccc(C(F)(F)F)c1Cl` [Example 15, (6R)-7-[2-Chloro-3-(trifluoromethyl)benzyl]-6-methyl-3-pyrazin-2-yl-6,7-dihydro[1,2,4]triazolo[4,3-a]pyrazin-8(5H)-one], for which the negative-log IC50 (pIC50) on rat P2X7 [4] is less than 5.00; on P2X7 [1], 5.03. For the same molecule, the pKi on P2X7 [2] is 6.04.

Regarding `CC1Cn2c(nnc2-c2cnccn2)C(=O)N1Cc1cccc(Cl)c1Cl` (racemic) [Example 11, (±)-7-(2,3-Dichlorobenzyl)-6-methyl-3-pyrazin-2-yl-6,7-dihydro[1,2,4]triazolo[4,3-a]pyrazin-8(5H)-one], the pIC50 on rat P2X7 [4] is 6.52; on P2X7 [1], 8.74. The pKi at P2X7 [2] is 8.60.

Molecule `C[C@H]1Cn2c(nnc2-c2cnccn2)C(=O)N1Cc1c(Cl)cccc1Cl` [Example 86, (6S)-7-(2,6-Dichlorobenzyl)-6-methyl-3-pyrazin-2-yl-6,7-dihydro[1,2,4]triazolo[4,3-a]pyrazin-8(5H)-one] showed a pKi on P2X7 [2] of 7.20.

For the molecule `CC(c1ccccc1)N1C(=O)c2nnc(-c3cnccn3)n2C[C@@H]1C` (stereo partly drawn) [Example 92, (6S)-6-Methyl-7-(1-phenylethyl)-3-pyrazin-2-yl-6,7-dihydro[1,2,4]triazolo[4,3-a]pyrazin-8(5H)-one], the pIC50 at rat P2X7 [4] was 5.00. Moreover, at P2X7 [2], the negative-log Ki (pKi) is 7.50.

Take `Cc1c(CN2C(=O)c3nnc(-c4cnccn4)n3C[C@@H]2C)cccc1C(F)(F)F` [Example 85, (6S)-6-Methyl-7-[2-methyl-3-(trifluoromethyl)benzyl]-3-pyrazin-2-yl-6,7-dihydro[1,2,4]triazolo[4,3-a]pyrazin-8(5H)-one]: the pIC50 at rat P2X7 [4] was 6.15; on P2X7 [1], 8.80.

Regarding `C[C@H]1Cn2c(nnc2-c2cnccn2)C(=O)N1Cc1ccccc1Cl` [Example 80, (6S)-7-(2-Chlorobenzyl)-6-methyl-3-pyrazin-2-yl-6,7-dihydro[1,2,4]triazolo[4,3-a]pyrazin-8(5H)-one], the pKi at P2X7 [2] is 7.50.

Consider `O=C1c2nnc(-c3cnccn3)n2CCN1Cc1cccc(Cl)c1Cl` [Example 2, 7-(2,3-Dichlorobenzyl)-3-pyrazin-2-yl-6,7-dihydro[1,2,4]triazolo[4,3-a]pyrazin-8(5H)-one], for which the pIC50 on rat P2X7 [4] was 5.06; on P2X7 [1], 6.36.

For `C[C@H]1Cn2c(nnc2-c2cnccn2)C(=O)N1Cc1ccc(Cl)cc1S(C)(=O)=O` [Example 82, (6S)-7-[4-Chloro-2-(methylsulfonyl)benzyl]-6-methyl-3-pyrazin-2-yl-6,7-dihydro[1,2,4]triazolo[4,3-a]pyrazin-8(5H)-one], the pIC50 at rat P2X7 [4] was less than 5.00; on P2X7 [1] it was 6.88.

Regarding `C[C@H]1Cn2c(nnc2-c2cnccn2)C(=O)N1Cc1cccc(Cl)c1Cl` [Example 13, (6S)-7-(2,3-Dichlorobenzyl)-6-methyl-3-pyrazin-2-yl-6,7-dihydro[1,2,4]triazolo[4,3-a]pyrazin-8(5H)-one], the pIC50 was 6.99 on rat P2X7 [4] and 9.00 on P2X7 [1]. For the same molecule, at P2X7 [2], the pKi is 8.85.

As to `C[C@H]1Cn2c(nnc2-c2cscn2)C(=O)N1Cc1cccc(C(F)(F)F)c1Cl` [Example 32, (6S)-7-[2-Chloro-3-(trifluoromethyl)benzyl]-6-methyl-3-(1,3-thiazol-4-yl)-6,7-dihydro[1,2,4]triazolo[4,3-a]pyrazin-8(5H)-one], the values for the pIC50 at rat P2X7 [4] and on P2X7 [1] were 7.80 and 9.70, respectively.

With `C[C@H]1Cn2c(nnc2-c2cnn(C)c2)C(=O)N1Cc1cccc(C(F)(F)F)c1Cl` [Example 24, (6S)-7-[2-Chloro-3-(trifluoromethyl)benzyl]-6-methyl-3-(1-methyl-1H-pyrazol-4-yl)-6,7-dihydro[1,2,4]triazolo[4,3-a]pyrazin-8(5H)-one], the results for the pIC50 on rat P2X7 [4] and on P2X7 [1] were less than 5.00 and 6.84, respectively.

Turning to `C[C@H]1Cn2c(nnc2-c2cncc(Cl)c2)C(=O)N1Cc1cccc(C(F)(F)F)c1Cl` [Example 52, (6S)-3-(5-Chloropyridin-3-yl)-7-[2-chloro-3-(trifluoromethyl)benzyl]-6-methyl-6,7-dihydro[1,2,4]triazolo[4,3-a]pyrazin-8(5H)-one], the pIC50 at P2X7 [1] is 8.28. Moreover, the pKi on P2X7 [2] is 8.10.

In the case of `C[C@H]1Cn2c(nnc2-c2ncccn2)C(=O)N1Cc1cccc(C(F)(F)F)c1Cl` [Example 27, (6S)-7-[2-Chloro-3-(trifluoromethyl)benzyl]-6-methyl-3-pyrimidin-2-yl-6,7-dihydro[1,2,4]triazolo[4,3-a]pyrazin-8(5H)-one], the pIC50 at P2X7 [1] was 9.40. This molecule had a pKi at P2X7 [2] of 8.70.

For the molecule `C[C@@H]1Cn2c(nnc2-c2cnccn2)C(=O)N1Cc1cccc(Cl)c1Cl` [Example 12, (6R)-7-(2,3-Dichlorobenzyl)-6-methyl-3-pyrazin-2-yl-6,7-dihydro[1,2,4]triazolo[4,3-a]pyrazin-8(5H)-one], the pIC50 on rat P2X7 [4] is less than 6.00; on P2X7 [1], 6.03. The same molecule gave a pKi at P2X7 [2] of 5.80.

Consider `CC(c1cccc(C(F)(F)F)c1Cl)N1C(=O)c2nnc(-c3cnccn3)n2C[C@@H]1C` (stereo partly shown) [Example 93], for which the pKi was 7.50 at rat P2X7 [3] and 6.80 at P2X7 [2]. For the same molecule, the figures for the pIC50 on rat P2X7 [4] and on P2X7 [1] were 5.52 and 7.06, respectively.
